Data from PubChem BioAssay AID717 (Columbia University Molecular Screening Center, 2007).
The list shows a part of the results, in another mix than the full data. The source made the active and inactive calls. No stated cut-off is given here; in the data, active means activation above about 37%; inactive means the rest.

Sequences of proteins named here, by UniProt entry; tags and fusion partners are left off.
UniProt P34913, whole entry: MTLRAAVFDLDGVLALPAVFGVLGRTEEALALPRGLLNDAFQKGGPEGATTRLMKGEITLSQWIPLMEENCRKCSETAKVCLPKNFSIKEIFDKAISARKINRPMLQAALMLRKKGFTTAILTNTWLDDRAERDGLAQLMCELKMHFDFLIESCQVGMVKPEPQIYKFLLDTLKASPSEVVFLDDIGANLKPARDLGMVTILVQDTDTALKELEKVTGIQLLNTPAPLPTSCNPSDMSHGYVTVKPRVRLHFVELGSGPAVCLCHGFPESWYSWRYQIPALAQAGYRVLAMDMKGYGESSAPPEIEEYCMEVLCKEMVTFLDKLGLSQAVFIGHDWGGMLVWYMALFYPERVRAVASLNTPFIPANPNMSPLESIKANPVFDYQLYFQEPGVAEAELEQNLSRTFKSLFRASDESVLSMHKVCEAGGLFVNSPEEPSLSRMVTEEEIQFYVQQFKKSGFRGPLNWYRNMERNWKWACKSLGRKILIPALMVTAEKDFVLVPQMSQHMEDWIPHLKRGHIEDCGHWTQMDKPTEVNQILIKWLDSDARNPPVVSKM

Target: Bifunctional epoxide hydrolase 2 (Homo sapiens) (UniProt P34913)
Experiment: soluble epoxide hydrolase activators, primary screen, biochemical, human sEH (AID 717)
Conditions: purified human sEH enzymatic activity, activator screen; at 2 µM; stronger effect = higher value

Row | Compound | activation
1 | N/C(=N\O)c1c(N)no[n+]1[O-] | inactive: 3.8%
2 | c1ccc(CN2CCC(Nc3ccccc3)CC2)cc1 | inactive: -3.6%
3 | CCC(CO)(C(=O)OC1CN2CCC1CC2)c1ccccc1 (stereo not drawn) | inactive: 1.2%
4 | CCOc1ncccc1C(=O)NCC1(N2CCOCC2)CCCCC1 | inactive: 4.8%
5 | O=C(NCC1(N2CCOCC2)CCCCC1)c1cc2ccccc2o1 | inactive: 8.7%
6 | O=C(OC1CN2CCC1CC2)C1c2ccccc2Oc2ccccc21 (stereo not drawn) | inactive: 7.6%
7 | O=C(NCC1(N2CCOCC2)CCCCC1)c1cc(=O)[nH]c2ccccc12 | inactive: -2.8%
8 | CN1CCC(Nc2cccc(F)c2)CC1 | inactive: 13.1%
